A short description of one data set: bulk density. Type of data set: physicochemical. The following applies: zinc ceftiofur sodium complex from water vs. ceftiofur sodium salt.
Data set [1] is described as follows: dissolution rate in water. Type of data set: physicochemical. Conditions: comparable equilibration conditions, zinc complex unmicronized.

Turning to “zinc ceftiofur sodium complex [Compound I]”, the bulk density entry in the data set “bulk density” is recorded as “about 0.19 g./ml”. In data set [1], the “solubility in water after 20 minutes” value is 47%.

The values above are taken from patent publication US4877782A, “Zinc ceftiofur complexes” (The Upjohn Company, priority 1988, dated 1989).
